Structures are written as SMILES.

The text below walks through data of ChEMBL document CHEMBL1154688, “Selective Kv1.5 blockers: development of (R)-1-(methylsulfonylamino)-3-[2-(4-methoxyphenyl)ethyl]-4-(4-methoxyphenyl)-2-imidazolidinone (KVI-020/WYE-160020) as a potential treatment for atrial arrhythmia” (J Med Chem, 2009).

The species entered for the data set is Homo sapiens. Put plainly: Protein binding in human plasma by equilibrium dialysis. The conditions noted are these: read-out: PPB (converted).

On to `COc1ccc(CCN2C(=O)N(NS(C)(=O)=O)C[C@H]2c2ccc(OC)cc2)cc1`, for which the fraction unbound was 0.06.
